Assay outcomes as filed in PubChem.
Compounds with a hit are over-represented: about 2% of the library has one in this group of screens.
Rango dissoc inh: qHTS Assay for Inhibitors of RanGTP induced Rango (Ran-regulated importin-beta cargo) - Importin beta complex dissociation | Snurportin-1 (Homo sapiens) + GTP-binding nuclear protein Ran (Homo sapiens) + Importin … | 340,000 tested, 0.071% active | Biochemical FRET Rango-importin beta, RanGTP-induced dissociation | Potency, µM (top dose mostly 46.1 µM); calls by dose curve; also: nearly all actives have a fitted effect of over 45% in size
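Rango/importin beta premix (0.1/0.25 uM final), PBS + 1 mM DTT + 0.02% Tween-20 + 0.1% BSA; cpd 5 min RT; FRET pre-read; + RanGTP-RCC1 (0.6 uM Ran, 2 mM GTP, 0.2 uM RCC1); 45 min RT; FRET post-read, ex 430, em 486/530 nm.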
Rango-impB inh: qHTS Assay for Inhibitors of Rango (Ran-regulated importin-beta cargo) - Importin beta complex formation; Importin subunit beta-1 (Homo sapiens), Q14974; Rango CFP/YFP FRET sensor + importin beta, 45 min; Potency, µM (series often up to 92.2 µM); 340,000 tested, 0.031% active; calls by dose curve; also: nearly all actives have a fitted effect of over 15% in size
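FRET biosensor Rango (snurportin 1 IBB between N-terminal EYFP and C-terminal Cerulean), 50 nM in PBS/1 mM DTT/0.02% Tween-20/0.1% BSA, preincubated 5 min RT with compound; 0.125 microM importin beta added, 45 min RT, CFP/YFP FRET ratio read.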
aSyn yeast inh: qHTS of alpha-syn Inhibitors | Yeast expressing alpha-synuclein, growth rescue, BacTiter-Glo, 24 h | Potency, µM (top dose mostly 46.1 µM), most hits filed as activators | 370,000 tested, 0.14% active | AID 652106, 2013; also: nearly all actives have a fitted effect of over 65% in size
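Readout is rescue of growth in alpha-synuclein-expressing yeast, so inhibitors of toxicity appear as activators. Growth after 24 hr at 30 deg C in galactose medium is quantified by luminescence.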
TDP-43 yeast inh: qHTS of TDP-43 Inhibitors | Potency, µM (doses to about 46.1 µM), usual class: activators | TDP-43 expressing yeast growth rescue, BacTiter-Glo, 24 h | AID 652104, 2013 | 410,000 tested, 1.8% active; also: nearly all actives have a fitted effect of over 50% in size
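Luminescence from BacTiter-Glo reports growth of TDP-43-expressing yeast after 24 hr at 30 deg C with compound. Cells were raffinose-pregrown to mid-log, then seeded in galactose medium at OD600=0.02.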
ASM inhibitor: Inhibitors of Secretory Acid Sphingomyelinase (S-ASM): qHTS. Sphingomyelin phosphodiesterase (Homo sapiens), P17405. placental ASM, HMU-PC fluorogenic substrate, 60 min. Potency, µM (series often up to 57.5 µM), hits mostly inhibitors. 340,000 tested, 0.006% active. AID 504937, 2011
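Human placenta-derived ASM enzyme was preincubated with compound for 10 minutes at room temperature, then given fluorogenic substrate HMU-PC0 (9 uM final) for 60 minutes at 37 °C; a pH 10 stop preceded fluorescence reading at Ex 386/Em 447 nm.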
Abeta rescue: qHTS for compounds that reverse cellular toxicity of Amyloid beta (A-beta) peptide in yeast: Primary Screen | yeast expressing A-beta42, growth rescue, OD600, 48 h; response scale: 0% DMSO, 100% iron-clioquinol control | Potency, µM (titrated, usually from 46.1 µM), actives largely listed as activators | 410,000 tested, 0.063% active | AID 1347071, 2019; also: nearly all actives have a fitted effect of over 55% in size
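Growth rescue measured by 600 nm absorbance after 48 h yeast culture at 30 C with compound. Values normalized between DMSO and an equimolar ferric chloride plus clioquinol control.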
Large screens that a line does not name were inactive. Unless noted, calls follow the shape of the dose curve; as a rule, active = well fitted curve in the direction sought with a large enough effect; inconclusive = small, poorly fitted or top-dose-only effect, or another doubt; inactive = no such curve, though single readings can be large; an effect the other way counts as inactive or inconclusive.

COc1ccccc1[C@H]1C(c2ccc(F)cc2)=NN(c2ccccc2)[C@@H]1CO	Rango dissoc inh inconclusive, Rango-impB inh inconclusive, TDP-43 yeast inh 28µM
Cc1ccc(S(=O)(=O)N(CC(=O)N2CCN(c3ccc(F)cc3)CC2)C2CCCCC2)cc1	TDP-43 yeast inh 20µM
O=C(COC(=O)C1CC1)Nc1ccc(Cl)cn1	Rango-impB inh inconclusive
O=C(COC(=O)Cc1ccc(Br)cc1)Nc1ccc(Cl)cn1	TDP-43 yeast inh 11µM, Abeta rescue inconclusive
N#Cc1c(-c2ccccc2)nc2n(c1=O)CCS2	TDP-43 yeast inh 35µM
CC(C)(C)c1ccc(-c2nc3n(c(=O)c2C#N)CCS3)cc1	TDP-43 yeast inh 20µM
N#Cc1c(-c2ccc(Br)cc2)nc2n(c1=O)CCCS2	TDP-43 yeast inh inconclusive
Cc1cc(=O)oc2cc(OCCc3ccccc3)ccc12	TDP-43 yeast inh 13µM
COc1cc(OC)c(OC)cc1/C=C/c1nc2ccccc2o1	none (no result: Rango dissoc inh, Rango-impB inh, TDP-43 yeast inh, ASM inhibitor, Abeta rescue)
Cc1cc2c([nH]c3ccccc32)c2c1OC(C)(C)C=C2	TDP-43 yeast inh 28µM
COc1ccc(-c2cc(C(=O)N3CCCc4ccccc43)no2)cc1OC	TDP-43 yeast inh 16µM
CCOC(=O)C1CCCN(C(=O)c2sc3nc(-c4ccccc4)cn3c2C)C1 (stereo not given)	none
COc1ccc(-c2cc(C(=O)N3CCCc4ccccc43)no2)cc1	TDP-43 yeast inh 10µM
COc1cccc(-c2cc(C(=O)N3CCCc4ccccc43)no2)c1	none
CCOC(=O)/C(=N/Nc1ccc(OC)cc1)N1CCCc2ccccc21	TDP-43 yeast inh 13µM
CCOC(=O)C1CCCN(C(=O)c2sc3nc(-c4ccc(F)cc4)cn3c2C)C1 (stereo not given)	TDP-43 yeast inh 8.9µM
CCOC(=O)/C(=N/Nc1ccccc1)N1CCCc2ccccc21	none
COc1ccc(-c2cn3c(C)c(C(=O)N4CCCc5ccccc54)sc3n2)cc1	aSyn yeast inh 20µM, TDP-43 yeast inh 25µM
COc1ccc(C(=O)N2CCCc3ccccc32)cc1	none
COc1ccc(-c2cn3c(C)c(C(=O)N4CCN(c5ccccc5F)CC4)sc3n2)cc1	Rango-impB inh inconclusive
Cc1c(C(=O)N2CCN(c3ccccc3F)CC2)sc2nc(-c3ccccc3)cn12	TDP-43 yeast inh 14µM
COc1ccc(CCNC(=O)c2nc(-c3ccc(Cl)cc3)n3c2CCCCC3)c(OC)c1	TDP-43 yeast inh inconclusive (no result: Rango dissoc inh, Rango-impB inh, aSyn yeast inh, ASM inhibitor)
COc1cc(/C=C2\SC(=S)N(NS(=O)(=O)c3ccccc3)C2=O)ccc1O	Rango-impB inh inconclusive
COc1cc(/C=C2\SC(=S)N(NS(=O)(=O)c3ccc(C)cc3)C2=O)ccc1O	Rango dissoc inh inconclusive, Rango-impB inh 41µM
CCOc1cc(/C=C2\SC(=S)N(NS(=O)(=O)c3ccc(C)cc3)C2=O)ccc1O	Rango-impB inh 23µM, ASM inhibitor inconclusive
Cc1ccc(-c2nc(S(=O)(=O)c3ccc(Cl)cc3)c(N3CCCCC3)o2)cc1	none (no result: Rango dissoc inh, Rango-impB inh, aSyn yeast inh, ASM inhibitor)
CCN(CC)c1nc(C(N)=O)cc(-c2ccccc2)n1	Rango-impB inh inconclusive, aSyn yeast inh 20µM
CN(N)c1nc(-c2ccccc2)cc(-c2ccccc2)n1	TDP-43 yeast inh 11µM
COc1cc2c(NC3CCN(C(C)C)CC3)nc(N3CCCN(C)CC3)nc2cc1OCCCN(C)C	none (no result: Rango dissoc inh, Rango-impB inh, TDP-43 yeast inh, ASM inhibitor, Abeta rescue)
O=C(COc1ccccc1C(=O)Nc1ccccc1)Nc1ccc(-c2ccccc2)cc1	none (no result: Rango dissoc inh, Rango-impB inh, TDP-43 yeast inh, ASM inhibitor, Abeta rescue)
O=[N+]([O-])C1C(c2ccccc2)=NOC1c1ccccc1O (stereo not given)	TDP-43 yeast inh 18µM
O=C(Oc1ccccc1C(=O)Nc1ccccc1)c1ccccc1Br	TDP-43 yeast inh 11µM
